Assay results reported in PubChem BioAssay (NCATS).
The entries are a selection whose mix differs from that of the whole data set. Inconclusive results are not listed. Calls of active or inactive are those of the source. Calls come from the whole dose curve; as a rule, active = well fitted curve in the direction sought with a large enough effect; inconclusive = small, poorly fitted or top-dose-only effect, or another doubt; inactive = no such curve, though single readings can be large; an effect the other way counts as inactive or inconclusive.

Protein sequences, listed by entry. Tags and fused reporters are not part of them.
UniProt P04637, whole entry: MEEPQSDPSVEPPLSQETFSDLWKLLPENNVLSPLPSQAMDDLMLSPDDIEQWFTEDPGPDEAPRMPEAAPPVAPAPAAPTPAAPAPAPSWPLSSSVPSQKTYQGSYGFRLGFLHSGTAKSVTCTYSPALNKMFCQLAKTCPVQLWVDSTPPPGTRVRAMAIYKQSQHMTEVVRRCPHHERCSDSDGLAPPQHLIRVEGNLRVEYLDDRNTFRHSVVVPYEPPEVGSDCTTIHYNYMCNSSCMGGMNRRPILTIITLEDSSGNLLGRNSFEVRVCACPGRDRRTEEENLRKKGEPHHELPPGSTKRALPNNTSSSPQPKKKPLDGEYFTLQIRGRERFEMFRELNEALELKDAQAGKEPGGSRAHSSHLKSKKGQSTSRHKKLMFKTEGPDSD

Key:
[1] = biological target: Cellular tumor antigen p53 (Homo sapiens) (UniProt P04637); experiment: Primary qHTS for small molecule compounds that upregulate eGFP-tagged delta133p53alpha (in N-terminal) cells. (AID 2060322); settings: NCI-H358 eGFP-delta133p53alpha fluorescence, 24 h; hits give high values;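 note: cells pre-induced with doxycycline then dosed without doxycycline; series mostly up to about 56 µM; 0% = DMSO vehicle and 100% = reference activator; nearly all actives have a fitted effect of over 75% in size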
[2] = BET inhibitor-based combinations targeting novel dependencies in MECOM-rearranged (r) AML: OCI-AML3 cell line (AID 2202232); settings: OCI-AML3 viability, CellTiter-Glo luminescence, 48 h; note: potency is the fitted concentration of half-maximal effect; nearly all actives have a fitted effect of over 35% in size
Outline: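 500 cells/well; 11-pt dose curve; 48 h, standard incubator; CellTiter-Glo luminescence after 15 min RT; DMSO/empty-well normalization; AUC plus Z-AUC (mean-centered within each line).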

[3] = BET inhibitor-based combinations targeting novel dependencies in MECOM-rearranged (r) AML: MV-4-11 cell line (AID 2202233); settings: MV-4-11 AML viability, CellTiter-Glo luminescence, 48 h; note: potency is the fitted concentration of half-maximal effect; nearly all actives have a fitted effect of over 45% in size
Excerpt: (§1) Ecotropic viral insertion site 1 (EVI1) is located on chromosome 3q26.2 as part of the MECOM (MDS and EVI1 complex) locus. Under normal hematopoiesis, EVI1 is a regulator of hematopoietic stem cell maintenance and self-renewal and EVI1 levels decrease as the cells differentiate. In approximately 5-10% of de novo acute myeloid leukemia (AML) EVI1 is aberrantly expressed, including Chromosomal inv(3)(q21;q26.2) or t(3;3)(q21;q26.2) alterations (MECOM-r) that account for about 50% of AML with EVI1 overexpression 31. AMLs with high levels of EVI1 have a poor prognosis and an overall survival time averaging between 10-14 months. EVI1 overexpression confers resistance in leukemia cells, highlighting the need to develop new targeted therapies for EVI1 overexpressing AMLs. […]
(§2) A collection of 2480 mechanistically annotated dugs (MIPE v5.0) was used to screen four 3q26.2 rearranged AML cell lines and three non-3q26.2 rearranged AML cell lines. […] Cell viability was determined by luminescence based, Cell Titer Glo assay (Promega). […] Luminescence readings were taken using a Viewlux (PerkinElmer) with a 2 s exposure time per plate. […] Quantitative drug activity data from dose-response curves was determined utilizing area Under the Curve (AUC) and Z-transformed AUC (Z-AUC, a mean-centering transformation applied to each individual cell-line screened).

[4] = BET inhibitor-based combinations targeting novel dependencies in MECOM-rearranged (r) AML: HNT-34 cell line (AID 2202234); settings: HNT-34 AML viability, CellTiter-Glo luminescence, 48 h; note: potency is the fitted concentration of half-maximal effect; nearly all actives have a fitted effect of over 35% in size
Outline: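 Cells were plated at 500 per well and exposed to each drug across an 11-point dose range for 48 hr at standard incubator conditions. Viability was read by CellTiter-Glo luminescence, and activity was expressed as AUC and per-cell-line Z-transformed AUC.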

[5] = BET inhibitor-based combinations targeting novel dependencies in MECOM-rearranged (r) AML: UCSD-AML1 cell line (AID 2202235); settings: UCSD-AML1 AML cells viability, CellTiter-Glo, 48 h; note: potency is the fitted concentration of half-maximal effect; nearly all actives have a fitted effect of over 40% in size
Excerpt: as §1, §2

[6] = BET inhibitor-based combinations targeting novel dependencies in MECOM-rearranged (r) AML: AML-191 cell line (AID 2202236; note: potency is the fitted concentration of half-maximal effect; nearly all actives have a fitted effect of over 35% in size); settings: AML-191 viability, CellTiter-Glo luminescence, 48 h
Excerpt: as §1, §2

| Structure (SMILES) | activation [1] | Potency [2] | Potency [3] | Potency [4] | Potency [5] | Potency [6] |
| --- | --- | --- | --- | --- | --- | --- |
| CN(CCCl)CCCl | inactive: -5.4% | active: 8.33 µM | active: 18.6 µM | active: 18.6 µM | active: 18.6 µM | active: 18.6 µM |
| CCC(=O)N(c1ccccc1)C1(COC)CCN(CCn2nnn(CC)c2=O)CC1 | inactive: 22% |  |  |  |  |  |
